Source: PubChem BioAssay AID602252 (Broad Institute, 2012)
The list shows a part of the results, in another mix than the full data. The source made the active and inactive calls.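 The calls were made as follows: active = mean inhibition of at least 30% with at least half of replicates also reaching 30%; inconclusive = no clear call, values can overlap the other calls; inactive = the rest.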

These compounds were tested against Golgi-associated PDZ and coiled-coil motif-containing protein (Homo sapiens) (UniProt Q9HD26) (assay: blockade of CAL PDZ-reporter peptide interaction – biochemical, fluorescence polarization, untagged CAL PDZ, HTS, primary screen (AID 602252;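 also: 0% = DMSO neutral control and 100% = excess unlabeled competitor peptide PRC23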)). Conditions: purified CAL PDZ, TMR-peptide fluorescence polarization, 1 h; at 24.9 µM; hits give high values.
`Nc1ccc([As](=O)(O)c2ccc(N)cc2)cc1` was tested, and the inhibition was inactive: -1.34%.
`CCN(/C(=N/P(=O)(N1CCOCC1)N1CCOCC1)N1CCOCC1)c1ccc(OC)cc1` was tested, and the inhibition was inactive: -6.81%.
For `O=C(Nc1cc([As](=O)(O)O)ccc1O)c1ccccc1`, the inhibition was inactive: -2.21%.
For `O=P1(N(CCCl)CCCl)OCCCS1` (stereo not drawn), the inhibition was inactive: -2.75%.
With `O=[N+]([O-])c1cccc(NC2=NCC(CBr)S2)c1` (stereo not drawn) the inhibition was inactive: -1.28%.
For `COC(=O)C1(C)COP(=O)(Nc2ccccc2)OC1` (stereo not drawn), the inhibition was inactive: 14.8%.
With `O=C(O)CNc1ccc([As](=O)(O)O)cc1` the inhibition was inactive: -3.56%.
In the case of `CC(C)(C)C(=O)NC(Sc1ccncn1)C(Cl)(Cl)Cl` (stereo not drawn), the inhibition is reported as inactive: 6.83%.
With `O=[N+]([O-])c1ncn(CCn2ncnc2[N+](=O)[O-])n1` the inhibition was inactive: -4.99%.
In the case of `C[C@H]1OP(=O)(Oc2ccccc2)[C@H](O)[C@H](O)[C@H]1N=[N+]=[N-]` (stereo partly drawn), the inhibition is reported as inactive: -0.11%.
With `O=P(Nc1nc2ccccc2s1)(c1ccccc1)c1ccccc1` the inhibition was inactive: 0.344%.
With `COc1ccc(N)c([N+](=O)[O-])c1[N+](=O)[O-]` the inhibition was inactive: -1.49%.
With `CN(C)C1(CNC(=O)c2ccc(Cl)c(S(N)(=O)=O)c2)CCCCC1` the inhibition was inactive: -3.51%.
With `O=P(Nc1ccccn1)(c1ccc(Br)cc1)c1ccc(Br)cc1` the inhibition was inactive: 1.46%.
For `Nc1ccc([As](=O)(O)c2ccc([N+](=O)[O-])cc2)cc1`, the inhibition was inactive: -0.562%.
In the case of `C(Cc1nn[nH]n1)Cc1nn[nH]n1`, the inhibition is reported as inactive: 0.29%.
In the case of `O=C(OC1CN2CCC1CC2)c1cccc(Cl)c1` (stereo not drawn), the inhibition is reported as inactive: -5.2%.
In the case of `CC(=O)NC(SC(=S)N(C)C)C(Cl)(Cl)Cl` (stereo not drawn), the inhibition is reported as inactive: 3.58%.
For `O=[N+]([O-])c1ccc(O)c(/C=N/Nc2ccc([N+](=O)[O-])cc2[N+](=O)[O-])c1`, the inhibition was inactive: -4.44%.
In the case of `O=[As](O)(c1ccccc1)c1ccc(O)cc1`, the inhibition is reported as inactive: 5.12%.
With `c1nnnn1CCn1cnnn1` the inhibition was inactive: 3.17%.
In the case of `O=P(Nc1nccs1)(c1ccccc1)c1ccccc1`, the inhibition is reported as inactive: -1.1%.
`CC(C)C(=O)NC(Sc1ccccc1)C(Cl)(Cl)Cl` (stereo not drawn) was tested, and the inhibition was inactive: -4.62%.
`CC(C)(C)C(=O)NC(Sc1ccccc1)C(Cl)(Cl)Cl` (stereo not drawn) was tested, and the inhibition was inactive: -7.33%.
`CCOc1ccc(C2=NCC(CBr)S2)cc1` (stereo not drawn) was tested, and the inhibition was inactive: -3.95%.
In the case of `O=P1(Nc2nc3ccc(Cl)cc3s2)COc2ccccc2O1` (stereo not drawn), the inhibition is reported as inactive: -0.34%.
In the case of `CC(=O)Nc1ccc([As](=O)(O)O)c(O)c1`, the inhibition is reported as inactive: -0.669%.
With `COC(=O)C1(C)COP(=O)(NCc2ccccc2)OC1` (stereo not drawn) the inhibition was inactive: -3.9%.
With `N#C/C(=C\c1ccc(N(CCBr)CCBr)cc1)C(N)=O` the inhibition was inactive: -0.619%.
In the case of `CC(=O)c1ccc(N2CC2c2ccncc2)cc1` (stereo not drawn), the inhibition is reported as inactive: -4.04%.
For `C[C@@H]1C=CCP(=O)(Oc2ccccc2)O1` (stereo partly drawn), the inhibition was inactive: 2.41%.
For `C[C@H]1OP(=O)(Oc2ccccc2)C[C@@H]2O[C@@H]21` (stereo partly drawn), the inhibition was inactive: -3.76%.
`O=P1(N(CCCl)CCCl)OCCC2CCCCN21` (stereo not drawn) was tested, and the inhibition was inactive: -0.865%.
`O=C(NC1CCS(=O)(=O)C1)NP(=S)(Oc1ccccc1)Oc1ccccc1` (stereo not drawn) was tested, and the inhibition was inactive: -4.29%.
For `c1ccc(-c2nn[nH]n2)c(-c2nn[nH]n2)c1`, the inhibition was inactive: -4.86%.
For `CN(C)C(=O)Oc1noc2ccccc12`, the inhibition was inactive: -0.639%.
`Cc1ccccc1OP(=O)(Nc1ccccn1)Oc1ccccc1C` was tested, and the inhibition was inactive: -0.482%.
For `CC(NC(=O)COC(=O)C(O)(c1ccccc1)c1ccccc1)c1ccccc1` (stereo not drawn), the inhibition was inactive: -0.058%.
In the case of `CC(=O)NC(SC(=S)N(CC(C)C)CC(C)C)C(Cl)(Cl)Cl` (stereo not drawn), the inhibition is reported as inactive: -5.67%.
For `Cc1ccc(OP(=O)(Nc2ccccn2)Oc2ccc(C)cc2)cc1`, the inhibition was inactive: -1.14%.
For `COC(=O)c1cc2c(s1)N=C(c1ccccc1)N(C)P2(=O)N1CCOCC1` (stereo not drawn), the inhibition was inactive: -3.36%.
With `CCC(=O)N1C2C3N(C(=O)CC)C1C1N(C(=O)CC)C(C(N1C(=O)CC)N3C(=O)CC)N2C(=O)CC` the inhibition was inactive: -5.59%.
`O=C(OC1CN2CCC1CC2)c1ccccc1` (stereo not drawn) was tested, and the inhibition was inactive: -5.57%.
